Values quoted from earlier work in patent publication US12351561B2, “Crystalline (2S,4R)-5-(5'-chloro-2'-fluoro-[1,1'-biphenyl]-4-yl)-2-(ethoxymethyl)-4-(3-hydroxyisoxazole-5-carboxamido)-2-methylpentanoic acid and uses thereof” (THERAVANCE BIOPHARMA R&D IP, LLC, priority 2016, dated 2025).

By UniProt entry, the sequences of proteins in these tests, tags left out. Where a name states a change or a piece, a line headed by the entry shows the natural chain unless it says otherwise.
UniProt P08473: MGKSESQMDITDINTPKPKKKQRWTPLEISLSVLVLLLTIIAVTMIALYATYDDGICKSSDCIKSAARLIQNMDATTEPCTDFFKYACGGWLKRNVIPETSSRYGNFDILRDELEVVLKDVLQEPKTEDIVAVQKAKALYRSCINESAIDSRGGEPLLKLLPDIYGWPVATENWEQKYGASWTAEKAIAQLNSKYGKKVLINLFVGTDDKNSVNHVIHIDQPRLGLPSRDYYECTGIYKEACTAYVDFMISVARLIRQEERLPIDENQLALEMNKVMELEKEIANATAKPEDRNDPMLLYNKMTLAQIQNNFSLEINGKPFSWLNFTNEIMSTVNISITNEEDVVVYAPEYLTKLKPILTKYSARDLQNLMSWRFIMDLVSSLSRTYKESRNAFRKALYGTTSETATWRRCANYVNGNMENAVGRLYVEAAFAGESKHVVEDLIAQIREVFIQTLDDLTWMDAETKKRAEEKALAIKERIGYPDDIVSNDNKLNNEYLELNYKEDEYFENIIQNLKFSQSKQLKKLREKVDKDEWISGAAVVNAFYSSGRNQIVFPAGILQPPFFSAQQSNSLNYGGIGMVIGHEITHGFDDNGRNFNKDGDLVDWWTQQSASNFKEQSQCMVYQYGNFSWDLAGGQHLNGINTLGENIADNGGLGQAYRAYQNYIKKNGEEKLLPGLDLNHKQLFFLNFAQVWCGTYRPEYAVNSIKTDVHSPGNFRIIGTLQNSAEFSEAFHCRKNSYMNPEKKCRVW

Target: NEP (Homo sapiens, UniProt P08473)
Conditions: cited from earlier work

## CCOC(=O)[C@H](C)C[C@@H](Cc1ccc(-c2ccccc2)cc1)NC(=O)CCC(=O)O [sacubitril]
  level of cGMP (target engagement) at 24 h postdose: not elevated
